The entries are a selection whose mix differs from that of the whole data set. Some tests of the compounds listed are not included; inactive here does not mean inactive elsewhere. Results filed as inconclusive are left out. Activity calls are given as the source filed them. The call rests on the fitted dose curve; in most records, active means well fitted activation curve with a large enough effect; inconclusive means small, poorly fitted or top-dose-only effect; inactive means no such curve, though single readings can be large or run the other way.

The nature of the assay: qHTS Assay for Enhancers of SMN2 Splice Variant Expression. Further: % of control where 0% means no effect; nearly all actives have a fitted effect of over 55% in size. The note with it: HEK293 SMN2-luciferase splicing reporter, luminescence, 30-36 h; at 46.1 µM (top of the series) unless noted. On the technique in general: qHTS replaces the single test concentration by a dilution series.
As for `CC(C)N1C(=O)CC2(CCN(CCOC(=O)C(O)(c3ccccc3)c3ccccc3)CC2)C1=O`, the activity change, positive = activation is inactive: -0.993%.

Turning to `CCN1CCCC(OC(=O)C2(O)c3ccccc3C=Cc3ccccc32)C1` (stereo not given), the activity change, positive = activation was inactive: -1.67%. The result for `Cc1ccccc1C(=O)NCC1(N2CCCCC2)CCCCC1` reads inactive: 5.69%; that for `CN(C)C1CCCC1OC(=O)C(O)(c1ccccc1)c1ccccc1` (stereo not given), inactive: -11.3%; that for `COc1cccc(C(=O)NCC2(N3CCCCC3)CCCCC2)c1`, inactive: 8.9%. In the case of `CN(C)c1cccc(C(=O)NCC2(N(C)C)CCCCC2)c1`, the activity change, positive = activation is inactive: 15.1%. As for `CN1CCC[C@H](OC(=O)[C@](O)(c2ccccc2)C2CCCC2)C1`, the figure is inactive: -0.84% [at 9.22 µM]. Turning to `O=C(OC1CN2CCC1CC2)C(CO)(c1ccccc1)c1ccccc1` (stereo not given), the activity change, positive = activation was inactive: -5.62%. The result for `CN1CC[C@H](OC(=O)[C@](O)(c2ccccc2)C2CCCC2)C1` reads inactive: -13.3% [at 9.22 µM]; that for `C=C(C)C#C[C@@](O)(C(=O)OC1CCN(C)CC1)c1ccccc1`, inactive: -16.6% [at 9.22 µM].

Source of the values: PubChem BioAssay AID1458 (National Center for Advancing Translational Sciences (NCATS), 2008).
